# Source: PubChem BioAssay AID2380 (Sanford-Burnham Center for Chemical Genomics, 2010)
# Only a part is listed here, and it is no random draw. Calls of active or inactive are those of the source.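 Rule for the calls: active = compounds whose signal lies at least 3.5 SD above the mean of all wells on their plate; inactive = the rest.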
# Experiment: small molecules increasing insulinoma cell replication – ATP luminescence, uHTS, primary screen (AID 2380);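 note: 0% = DMSO-treated cells in low-serum medium and 100% = 10% serum control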
# Conditions: MIN6 cells proliferation, ATPlite luminescence, 48 h; at 10 µM; active compounds read high; 100% = growth in 10% serum; cells starved in 0.2% serum
row,SMILES,proliferation
1,CCC(=O)N(c1ccccc1)C1CCN(CCc2ccccc2)CC1,inactive: -1.33%
2,CCC(=O)N(c1ccccc1)C1(COC)CCN(CCc2cccs2)CC1,inactive: -4.95%
3,CCC(=O)N(c1ccccc1)C1(COC)CCN(CCn2nnn(CC)c2=O)CC1,inactive: -3.34%
